# Measurements as given in US6500803B1, “Factor VIIa inhibitors” (Aventis Pharma Deutschland GmbH, priority 1999, dated 2002).
# Chains of the proteins cited; added tags and fusions are not shown. Residues count along the entry.
# UniProt P08709, 61-212 limits assumed: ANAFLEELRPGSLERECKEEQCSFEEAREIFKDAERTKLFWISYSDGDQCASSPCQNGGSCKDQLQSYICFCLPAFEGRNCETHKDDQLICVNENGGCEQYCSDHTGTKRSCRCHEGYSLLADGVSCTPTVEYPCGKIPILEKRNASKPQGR
# UniProt P08709, 213-466 limits assumed: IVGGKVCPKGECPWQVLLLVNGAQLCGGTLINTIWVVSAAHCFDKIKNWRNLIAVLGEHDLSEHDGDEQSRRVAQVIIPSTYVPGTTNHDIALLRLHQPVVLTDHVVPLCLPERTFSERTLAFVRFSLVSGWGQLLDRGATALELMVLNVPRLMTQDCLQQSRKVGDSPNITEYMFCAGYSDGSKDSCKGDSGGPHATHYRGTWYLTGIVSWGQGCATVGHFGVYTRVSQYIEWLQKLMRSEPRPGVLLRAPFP
# UniProt P13726, 33-295 partner limits assumed: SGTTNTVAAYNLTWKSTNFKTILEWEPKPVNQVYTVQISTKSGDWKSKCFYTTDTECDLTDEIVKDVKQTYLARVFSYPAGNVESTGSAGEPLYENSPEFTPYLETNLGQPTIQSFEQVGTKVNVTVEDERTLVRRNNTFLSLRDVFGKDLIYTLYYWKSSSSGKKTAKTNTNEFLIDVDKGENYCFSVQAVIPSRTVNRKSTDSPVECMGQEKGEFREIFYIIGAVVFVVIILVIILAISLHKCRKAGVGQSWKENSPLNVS
# Molecular target: factor VIIa/tissue factor (Homo sapiens, UniProt P08709)
# Experiment: Factor VIIa (FVIIa) chromogenic assay
# Settings: read-out: Ki (FVIIa); human factor VIIa 5 nM and TF 10 nM, chromogenic substrate S-2288 500 μM, 15 min preincubation, 25° C., pH 8.15
# Excerpt: The ability of compounds of formula I to inhibit factor VIIa or other enzymes like factor Xa, thrombin, plasmin, or trypsin can be assessed by determining the concentration of the compound of formula I that inhibits enzyme activity by 50%, i.e., the IC50 value, which is related to the inhibition constant Ki. Purified enzymes are used in chromogenic assays. […]
# The inhibitory activity (expressed as inhibition constant Ki (FVIIa)) of compounds of formula I towards factor VIIa/tissue factor activity was determined using a chromogenic assay essentially as described previously (J. A. Ostrem et al., Biochemistry 37 (1998) 1053-1059, which is incorporated herein by reference). Kinetic assays were conducted at 25° C. in half-area microtiter plates (Costar Corp., Cambridge, Mass.) using a kinetic plate reader (Molecular Devices Spectramax 250). […]
structure (smiles),measurement,value
C=CCOC(=O)N[C@@H](Cc1ccc(C(=N)N)cc1)C(=O)N[C@@H](CCC(=O)O)C(=O)NC1CCN(S(=O)(=O)c2cc(Cl)ccc2Cl)CC1,Ki,670 nM
